Some results for these compounds are left out of this collection, so the calls shown say nothing about other tests.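 A five-concentration, 48-hour dose response in 96-well plates underlies each endpoint, interpolated linearly between surrounding concentrations. Definition used: TGI = concentration required for complete inhibition of growth.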
Legend:
Experiment in all cases: DTP human tumour cell line panel, 48 h
NCI-H460 lung = tested on: NCI-H460 lung
RPMI-8226 leukemia = tested on: RPMI-8226 leukemia
SN12C renal = tested on: SN12C renal
LOX IMVI melanoma = tested on: LOX IMVI melanoma
KM12 colon = tested on: KM12 colon
HCT-116 colon = tested on: HCT-116 colon
MALME-3M melanoma = tested on: MALME-3M melanoma
IGROV1 ovarian = tested on: IGROV1 ovarian
HOP-92 NSCLC = tested on: HOP-92 NSCLC
SF-539 CNS = tested on: SF-539 CNS
MDA-MB-435 = tested on: MDA-MB-435
HCT-15 colon = tested on: HCT-15 colon
OVCAR-3 ovarian = tested on: OVCAR-3 ovarian
M14 melanoma = tested on: M14 melanoma
OVCAR-8 ovarian = tested on: OVCAR-8 ovarian
SK-OV-3 ovarian = tested on: SK-OV-3 ovarian
HS 578T breast = tested on: HS 578T breast
SF-295 CNS = tested on: SF-295 CNS
HT29 colon = tested on: HT29 colon
NCI-H226 lung = tested on: NCI-H226 lung
EKVX NSCLC = tested on: EKVX NSCLC
786-0 renal = tested on: 786-0 renal
SR leukemia = tested on: SR leukemia
ACHN renal = tested on: ACHN renal
MOLT-4 leukemia = tested on: MOLT-4 leukemia
SK-MEL-5 melanoma = tested on: SK-MEL-5 melanoma
NCI-H23 lung = tested on: NCI-H23 lung
HL-60(TB) leukemia = tested on: HL-60(TB) leukemia
BT-549 breast = tested on: BT-549 breast
SNB-19 CNS = tested on: SNB-19 CNS
TK-10 renal = tested on: TK-10 renal
UACC-62 melanoma = tested on: UACC-62 melanoma
K-562 leukemia = tested on: K-562 leukemia
DU-145 prostate = tested on: DU-145 prostate
SW-620 colon = tested on: SW-620 colon
CCRF-CEM leukemia = tested on: CCRF-CEM leukemia
UACC-257 melanoma = tested on: UACC-257 melanoma
MDA-MB-231 breast = tested on: MDA-MB-231 breast
PC-3 prostate = tested on: PC-3 prostate
OVCAR-4 ovarian = tested on: OVCAR-4 ovarian
COLO 205 colon = tested on: COLO 205 colon
SK-MEL-2 melanoma = tested on: SK-MEL-2 melanoma
T-47D breast = tested on: T-47D breast
SF-268 CNS = tested on: SF-268 CNS
CAKI-1 renal = tested on: CAKI-1 renal
A549 NSCLC = tested on: A549 NSCLC
UO-31 renal = tested on: UO-31 renal
NCI-H522 lung = tested on: NCI-H522 lung
HCC-2998 colon = tested on: HCC-2998 colon
MCF7 breast = tested on: MCF7 breast
SK-MEL-28 melanoma = tested on: SK-MEL-28 melanoma
U251 CNS = tested on: U251 CNS
A498 renal = tested on: A498 renal
SNB-75 CNS = tested on: SNB-75 CNS
NCI/ADR-RES ovarian = tested on: NCI/ADR-RES ovarian
OVCAR-5 ovarian = tested on: OVCAR-5 ovarian
HOP-62 NSCLC = tested on: HOP-62 NSCLC
MDA-N = tested on: MDA-N
RXF 393 renal = tested on: RXF 393 renal

Measured: TGI

CCC#CC(O)(C(=O)OC1CC2CCC(C1)N2C)c1ccccc1 (centres undefined)
> 100 µM: NCI-H460 lung | RPMI-8226 leukemia | SN12C renal | LOX IMVI melanoma | KM12 colon | HCT-116 colon | MALME-3M melanoma | IGROV1 ovarian | HOP-92 NSCLC | SF-539 CNS | MDA-MB-435 | HCT-15 colon | OVCAR-3 ovarian | M14 melanoma | OVCAR-8 ovarian | SK-OV-3 ovarian | HS 578T breast | SF-295 CNS | HT29 colon | NCI-H226 lung | EKVX NSCLC | 786-0 renal | SR leukemia | ACHN renal | MOLT-4 leukemia | SK-MEL-5 melanoma | NCI-H23 lung | HL-60(TB) leukemia | BT-549 breast | SNB-19 CNS | TK-10 renal | UACC-62 melanoma | K-562 leukemia | DU-145 prostate | SW-620 colon | CCRF-CEM leukemia | UACC-257 melanoma | MDA-MB-231 breast | PC-3 prostate | OVCAR-4 ovarian | COLO 205 colon | SK-MEL-2 melanoma | T-47D breast | SF-268 CNS | CAKI-1 renal | A549 NSCLC | UO-31 renal | NCI-H522 lung | HCC-2998 colon | MCF7 breast | SK-MEL-28 melanoma | U251 CNS | A498 renal | SNB-75 CNS | NCI/ADR-RES ovarian | OVCAR-5 ovarian | HOP-62 NSCLC | MDA-N | RXF 393 renal

Reference: PubChem BioAssay (NCI)
